Tests used:
human G9a enzyme = human G9a enzyme (Homo sapiens, UniProt Q96KQ7); assay: G9a enzyme activity assay (TR-FRET); type: biochemical; details: read-out: G9a IC50
DNMT1 = DNMT1 (Homo sapiens, UniProt P26358); assay: DNMT1 enzyme activity assay (TR-FRET, EPIgeneous methyltransferase assay); type: biochemical; details: read-out: DNMT1 IC50

By UniProt entry, the sequences of proteins in these tests, tags left out.
UniProt Q96KQ7, whole entry: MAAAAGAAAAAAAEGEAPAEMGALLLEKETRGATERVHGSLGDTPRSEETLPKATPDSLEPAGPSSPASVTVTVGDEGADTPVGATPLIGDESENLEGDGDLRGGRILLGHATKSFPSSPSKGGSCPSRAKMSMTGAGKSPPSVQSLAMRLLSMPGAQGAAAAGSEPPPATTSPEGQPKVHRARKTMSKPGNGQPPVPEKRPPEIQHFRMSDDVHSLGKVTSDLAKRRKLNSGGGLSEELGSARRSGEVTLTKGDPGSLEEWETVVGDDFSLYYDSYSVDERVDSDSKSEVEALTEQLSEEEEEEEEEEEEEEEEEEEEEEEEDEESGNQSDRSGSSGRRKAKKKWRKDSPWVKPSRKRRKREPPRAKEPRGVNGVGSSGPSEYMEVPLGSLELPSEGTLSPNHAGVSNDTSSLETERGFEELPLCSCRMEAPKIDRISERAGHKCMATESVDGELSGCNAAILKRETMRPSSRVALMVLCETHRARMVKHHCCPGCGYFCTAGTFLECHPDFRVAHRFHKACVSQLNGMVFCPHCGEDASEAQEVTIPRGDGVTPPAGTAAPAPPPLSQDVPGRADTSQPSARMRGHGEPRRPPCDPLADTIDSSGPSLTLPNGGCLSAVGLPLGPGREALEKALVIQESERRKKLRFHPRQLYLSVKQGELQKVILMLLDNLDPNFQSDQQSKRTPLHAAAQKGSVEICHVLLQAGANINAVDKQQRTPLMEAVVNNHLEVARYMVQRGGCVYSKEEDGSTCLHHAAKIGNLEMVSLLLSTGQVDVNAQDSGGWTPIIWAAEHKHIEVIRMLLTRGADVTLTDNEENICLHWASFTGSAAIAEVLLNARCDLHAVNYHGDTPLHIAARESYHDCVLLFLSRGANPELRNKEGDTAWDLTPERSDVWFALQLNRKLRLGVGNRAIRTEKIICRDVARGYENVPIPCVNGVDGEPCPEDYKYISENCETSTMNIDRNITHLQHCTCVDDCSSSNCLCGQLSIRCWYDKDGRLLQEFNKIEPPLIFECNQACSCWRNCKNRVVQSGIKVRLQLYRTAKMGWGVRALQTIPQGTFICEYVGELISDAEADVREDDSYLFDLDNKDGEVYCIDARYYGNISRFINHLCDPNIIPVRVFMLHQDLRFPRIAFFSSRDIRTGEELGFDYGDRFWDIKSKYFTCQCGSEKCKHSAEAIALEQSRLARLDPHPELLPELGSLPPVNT
UniProt P26358, whole entry: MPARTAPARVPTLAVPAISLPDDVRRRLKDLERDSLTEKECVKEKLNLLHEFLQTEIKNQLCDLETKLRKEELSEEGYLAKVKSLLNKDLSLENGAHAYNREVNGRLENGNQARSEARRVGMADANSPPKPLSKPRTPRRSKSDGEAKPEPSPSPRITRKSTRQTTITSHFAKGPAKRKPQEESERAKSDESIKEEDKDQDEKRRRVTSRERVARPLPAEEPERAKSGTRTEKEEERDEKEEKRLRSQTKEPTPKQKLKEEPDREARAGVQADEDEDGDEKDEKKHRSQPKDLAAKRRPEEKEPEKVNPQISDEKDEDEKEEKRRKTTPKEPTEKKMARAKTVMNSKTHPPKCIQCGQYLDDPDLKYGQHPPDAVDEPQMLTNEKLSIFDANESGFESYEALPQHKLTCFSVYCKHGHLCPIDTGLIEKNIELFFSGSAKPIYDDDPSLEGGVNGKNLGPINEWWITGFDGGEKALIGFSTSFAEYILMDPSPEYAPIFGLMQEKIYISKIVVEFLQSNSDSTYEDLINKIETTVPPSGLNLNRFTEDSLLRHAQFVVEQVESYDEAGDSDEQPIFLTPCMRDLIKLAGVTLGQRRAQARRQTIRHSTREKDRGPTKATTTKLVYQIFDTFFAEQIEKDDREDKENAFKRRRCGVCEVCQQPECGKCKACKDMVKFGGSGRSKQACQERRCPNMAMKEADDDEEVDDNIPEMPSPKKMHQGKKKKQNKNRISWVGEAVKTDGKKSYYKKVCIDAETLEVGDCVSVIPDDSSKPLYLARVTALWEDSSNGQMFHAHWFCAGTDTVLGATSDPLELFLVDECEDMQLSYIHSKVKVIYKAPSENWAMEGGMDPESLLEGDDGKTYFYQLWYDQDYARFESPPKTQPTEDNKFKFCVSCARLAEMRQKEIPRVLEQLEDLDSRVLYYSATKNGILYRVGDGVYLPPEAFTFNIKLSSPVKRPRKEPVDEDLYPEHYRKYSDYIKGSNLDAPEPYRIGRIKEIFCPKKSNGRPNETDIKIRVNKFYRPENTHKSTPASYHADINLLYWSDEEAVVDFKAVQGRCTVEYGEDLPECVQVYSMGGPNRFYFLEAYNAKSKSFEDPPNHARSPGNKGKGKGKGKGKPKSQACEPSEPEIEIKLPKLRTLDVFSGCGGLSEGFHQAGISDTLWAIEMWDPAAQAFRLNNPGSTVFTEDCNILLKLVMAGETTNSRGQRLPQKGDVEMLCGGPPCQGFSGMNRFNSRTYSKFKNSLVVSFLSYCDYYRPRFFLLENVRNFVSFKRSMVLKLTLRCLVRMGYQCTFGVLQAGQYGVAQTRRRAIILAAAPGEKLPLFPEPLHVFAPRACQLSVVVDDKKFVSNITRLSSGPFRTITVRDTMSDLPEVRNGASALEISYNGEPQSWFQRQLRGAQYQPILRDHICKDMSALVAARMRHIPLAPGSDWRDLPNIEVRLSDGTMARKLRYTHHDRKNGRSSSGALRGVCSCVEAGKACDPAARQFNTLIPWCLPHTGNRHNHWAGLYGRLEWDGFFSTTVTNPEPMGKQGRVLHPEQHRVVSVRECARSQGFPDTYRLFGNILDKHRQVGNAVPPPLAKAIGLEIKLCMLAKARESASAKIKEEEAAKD

Question: Which IC50 (human G9a enzyme) does the source give for `CCc1ccc(-c2cc(NC3CCN(C)CC3(F)F)c3cc(OC)c(OCCCN4CCCC4)cc3n2)o1` (centres unmarked) here?
Answer: Its IC50 is 100 to 500 nM.

Question: And the IC50 (DNMT1)?
Answer: The IC50 was 1000 to 10000 nM.
